The text below walks through data of patent publication US20120164142A1.

This experiment addresses T1, human natriuretic peptide receptor B (NPR-B) (human), P20594.
T1 chain: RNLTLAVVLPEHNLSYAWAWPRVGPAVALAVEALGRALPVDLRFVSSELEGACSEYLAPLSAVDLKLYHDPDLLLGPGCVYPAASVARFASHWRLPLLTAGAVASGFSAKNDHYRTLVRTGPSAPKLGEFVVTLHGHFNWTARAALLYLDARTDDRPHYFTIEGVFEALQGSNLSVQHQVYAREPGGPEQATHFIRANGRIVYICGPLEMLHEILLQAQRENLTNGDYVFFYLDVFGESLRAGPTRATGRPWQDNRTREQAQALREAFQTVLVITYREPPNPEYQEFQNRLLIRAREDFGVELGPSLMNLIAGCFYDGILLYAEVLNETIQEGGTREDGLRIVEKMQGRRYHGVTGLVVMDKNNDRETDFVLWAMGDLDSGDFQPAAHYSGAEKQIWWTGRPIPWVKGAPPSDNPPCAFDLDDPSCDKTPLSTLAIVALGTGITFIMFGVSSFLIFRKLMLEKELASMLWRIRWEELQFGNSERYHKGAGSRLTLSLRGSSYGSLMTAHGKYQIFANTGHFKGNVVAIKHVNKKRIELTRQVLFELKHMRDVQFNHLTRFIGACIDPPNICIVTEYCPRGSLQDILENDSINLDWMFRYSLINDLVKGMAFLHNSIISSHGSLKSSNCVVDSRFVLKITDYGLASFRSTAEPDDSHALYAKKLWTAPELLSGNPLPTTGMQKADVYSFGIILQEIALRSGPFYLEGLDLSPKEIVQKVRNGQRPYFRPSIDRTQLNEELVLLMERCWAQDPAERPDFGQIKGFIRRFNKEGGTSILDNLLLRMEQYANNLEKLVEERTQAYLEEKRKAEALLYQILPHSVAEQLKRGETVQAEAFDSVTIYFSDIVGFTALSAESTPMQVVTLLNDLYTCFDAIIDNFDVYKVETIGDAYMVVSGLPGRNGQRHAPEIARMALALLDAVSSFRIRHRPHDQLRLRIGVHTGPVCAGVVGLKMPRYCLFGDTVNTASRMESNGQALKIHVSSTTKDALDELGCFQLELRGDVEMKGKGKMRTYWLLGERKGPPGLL
The experiment can be described thus: cell-based or functional assay.

B1: C2(E6) [BC2] (peptide)
peptide: EEEEEEASTSPANPQPAASSPGLSKGCFGLKLDRIGSMSGLGC
modifications: not checked
For B1, the % Efficacy stood at 97%; the EC50 (nM), NPR-B whole cell cGMP assay was 720 nM; the EC50 Ratio versus CNP22 was determined as 49; the Rescue Ratio Average was 803.

B2: C3(E6) [BC3] (peptide)
peptide: EEEEEEPSSAAPQPNAPSTSAGLSKGCFGLKLDRIGSMSGLGC
modifications: not checked
As to B2, the % Efficacy amounted to 67%; the EC50 (nM), NPR-B whole cell cGMP assay turned out to be 990 nM; the EC50 Ratio versus CNP22 is 67.4; the Rescue Ratio Average turned out to be 199.
